Measured values from patent US12448518B2, “Phthalocyanine dye compounds, conjugates and methods of use thereof” (Rakuten Medical, Inc., priority 2020, dated 2025).

Test: Thermodynamic solubility in pH 7.4 DPBS, UV quantification
Type: physicochemical
Details: powder at 1 mg/mL, 24 hours, room temperature (25° C.)
Description: A working 1 mM stock solution of the test compound in DMSO was prepared from a 10 mM DMSO stock solution. A spectrum scan from 220 nm to 1000 nm of this working solution was performed in a 96-well UV plate to identify the wavelength maxima. […] The selected stock solution was serially diluted in DMSO to confirm linearity and generate a seven to eight-point calibration curve. Of note, only linear points were considered in the curve.
The resulting solution was placed on a RotoSpin™ shaker at 50 rpm for 24 hours at room temperature (25° C.). The solution was then filtered using a 0.45 μm PVDF filter to remove any insoluble fraction of the compound. A 150 μL aliquot of the filtrate was taken for quantification using UV spectroscopy (POLARstar Omega BMG Plate Reader). The optical densities of the standard solutions and the test sample were acquired at the same wavelength maxima. The test sample concentration was calculated from its optical density using the linearity/calibration curve.

Sodium 2-((19-((dimethyl(3-(tris(3-sulfonatopropyl)ammonio)propyl)silyl)oxy)-19H-6,11-(azeno)-17,21-(azeno[3]episoindoloazeno)benzo[7,8][1,3,5,10]tetraaza[2]silacycloundecino[4,3-a:11,1-a′]diisoindol-19-yl)oxy)-2-methyl-6,6-bis(3-sulfonatopropyl)-9,12-dioxa-6-aza-2-silapentadecan-6-ium-15-oate [Example 21]
Solubility* (thermodynamic): C (>100 μg/mL)
